Values joined by “and” are separate entries in the source; they are usually repeats but may differ in a detail not shown here. Equal entries are not always repeated. The entries are a selection whose mix differs from that of the whole data set. Inconclusive results are not listed. Some compounds were tested as several samples or in several runs, with calls that do not always agree. Active and inactive are the calls of the source. Unless noted, calls follow the shape of the dose curve; as a rule, active = well fitted curve in the direction sought with a large enough effect in the repeat runs; inconclusive = weak or mixed curves; inactive = no such curve, though single readings can be large; an effect the other way counts as inactive or inconclusive.
How the values were obtained:
[1] = qHTS assay to identify small molecule agonists of the androgen receptor (AR) signaling pathway in the presence of an antagonist - cell viability counter screen (AID 1259379);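 also: MDA-kb2 human breast cancer cells carrying an MMTV luciferase reporter; nearly all actives have a fitted effect of over 25% in size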
Summary of the method: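 Each compound was tested at 15 concentrations on MDA-kb2 cells in the presence of 3.0uM nilutamide. Viability was measured by CellTiter-Fluor fluorescence after a 16 hr incubation at 37C in a CO2-free atmosphere.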

The chains behind the UniProt entries cited, without tags or fusion partners. Where a name states a change or a piece, a line headed by the entry shows the natural chain unless it says otherwise.
UniProt P03372, whole entry, looked up: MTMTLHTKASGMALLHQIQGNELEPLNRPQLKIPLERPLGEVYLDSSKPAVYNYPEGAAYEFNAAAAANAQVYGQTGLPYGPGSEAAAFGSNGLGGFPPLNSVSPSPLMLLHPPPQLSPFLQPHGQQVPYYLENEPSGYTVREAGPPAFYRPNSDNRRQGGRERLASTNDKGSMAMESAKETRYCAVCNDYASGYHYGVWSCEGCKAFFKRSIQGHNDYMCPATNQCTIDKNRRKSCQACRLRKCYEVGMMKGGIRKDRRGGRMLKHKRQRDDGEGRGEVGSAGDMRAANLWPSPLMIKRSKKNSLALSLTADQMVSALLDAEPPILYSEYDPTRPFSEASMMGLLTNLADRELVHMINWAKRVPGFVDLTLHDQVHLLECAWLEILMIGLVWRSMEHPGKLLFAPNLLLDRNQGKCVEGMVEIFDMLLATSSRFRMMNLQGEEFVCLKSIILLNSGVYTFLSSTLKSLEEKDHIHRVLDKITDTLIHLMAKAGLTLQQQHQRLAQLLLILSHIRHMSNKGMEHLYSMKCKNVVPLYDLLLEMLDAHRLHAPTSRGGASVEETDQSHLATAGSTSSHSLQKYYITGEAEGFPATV
UniProt P16473, whole entry, looked up: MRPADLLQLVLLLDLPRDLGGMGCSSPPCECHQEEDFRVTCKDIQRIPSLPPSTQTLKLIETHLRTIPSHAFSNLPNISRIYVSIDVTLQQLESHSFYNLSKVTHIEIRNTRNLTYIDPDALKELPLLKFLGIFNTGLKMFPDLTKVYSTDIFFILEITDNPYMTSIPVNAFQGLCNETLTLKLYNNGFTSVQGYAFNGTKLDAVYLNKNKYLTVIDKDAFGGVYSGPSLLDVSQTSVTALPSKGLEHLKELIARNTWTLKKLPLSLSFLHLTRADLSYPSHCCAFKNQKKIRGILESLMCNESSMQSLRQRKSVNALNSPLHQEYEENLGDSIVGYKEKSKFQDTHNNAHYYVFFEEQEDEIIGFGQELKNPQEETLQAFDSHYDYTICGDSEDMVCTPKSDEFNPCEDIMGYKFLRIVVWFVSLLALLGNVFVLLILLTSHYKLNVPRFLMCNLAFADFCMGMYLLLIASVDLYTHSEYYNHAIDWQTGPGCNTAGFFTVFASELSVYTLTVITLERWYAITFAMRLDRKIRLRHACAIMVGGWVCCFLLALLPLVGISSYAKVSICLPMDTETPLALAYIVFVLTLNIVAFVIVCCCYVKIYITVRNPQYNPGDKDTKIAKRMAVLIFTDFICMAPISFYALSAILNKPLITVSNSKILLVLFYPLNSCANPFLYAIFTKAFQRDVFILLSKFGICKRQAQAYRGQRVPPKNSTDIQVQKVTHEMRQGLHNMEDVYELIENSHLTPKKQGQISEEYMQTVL
UniProt P06401: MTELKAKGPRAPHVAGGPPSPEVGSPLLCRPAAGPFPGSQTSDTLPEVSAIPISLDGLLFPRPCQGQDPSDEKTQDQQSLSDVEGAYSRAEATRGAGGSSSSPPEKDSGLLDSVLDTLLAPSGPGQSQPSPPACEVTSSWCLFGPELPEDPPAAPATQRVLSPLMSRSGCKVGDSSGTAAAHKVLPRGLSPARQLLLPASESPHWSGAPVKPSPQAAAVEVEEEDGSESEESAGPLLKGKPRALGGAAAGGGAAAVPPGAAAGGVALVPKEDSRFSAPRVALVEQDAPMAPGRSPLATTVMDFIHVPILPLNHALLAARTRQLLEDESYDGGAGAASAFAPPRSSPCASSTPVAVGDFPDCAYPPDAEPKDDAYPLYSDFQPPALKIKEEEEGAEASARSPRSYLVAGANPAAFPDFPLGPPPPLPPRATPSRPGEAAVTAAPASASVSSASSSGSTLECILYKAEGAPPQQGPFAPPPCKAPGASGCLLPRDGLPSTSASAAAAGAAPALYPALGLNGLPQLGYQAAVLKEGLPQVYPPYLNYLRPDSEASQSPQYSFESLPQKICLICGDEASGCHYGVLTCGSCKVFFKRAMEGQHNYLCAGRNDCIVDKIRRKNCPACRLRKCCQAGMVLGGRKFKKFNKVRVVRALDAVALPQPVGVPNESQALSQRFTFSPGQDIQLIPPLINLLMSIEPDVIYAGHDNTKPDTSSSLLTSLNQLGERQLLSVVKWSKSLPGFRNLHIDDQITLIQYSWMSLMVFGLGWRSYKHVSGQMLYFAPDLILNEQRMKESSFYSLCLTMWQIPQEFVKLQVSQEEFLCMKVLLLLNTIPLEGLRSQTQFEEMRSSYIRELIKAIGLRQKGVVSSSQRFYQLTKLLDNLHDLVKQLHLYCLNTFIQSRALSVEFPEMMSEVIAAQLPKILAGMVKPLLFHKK
UniProt P10275: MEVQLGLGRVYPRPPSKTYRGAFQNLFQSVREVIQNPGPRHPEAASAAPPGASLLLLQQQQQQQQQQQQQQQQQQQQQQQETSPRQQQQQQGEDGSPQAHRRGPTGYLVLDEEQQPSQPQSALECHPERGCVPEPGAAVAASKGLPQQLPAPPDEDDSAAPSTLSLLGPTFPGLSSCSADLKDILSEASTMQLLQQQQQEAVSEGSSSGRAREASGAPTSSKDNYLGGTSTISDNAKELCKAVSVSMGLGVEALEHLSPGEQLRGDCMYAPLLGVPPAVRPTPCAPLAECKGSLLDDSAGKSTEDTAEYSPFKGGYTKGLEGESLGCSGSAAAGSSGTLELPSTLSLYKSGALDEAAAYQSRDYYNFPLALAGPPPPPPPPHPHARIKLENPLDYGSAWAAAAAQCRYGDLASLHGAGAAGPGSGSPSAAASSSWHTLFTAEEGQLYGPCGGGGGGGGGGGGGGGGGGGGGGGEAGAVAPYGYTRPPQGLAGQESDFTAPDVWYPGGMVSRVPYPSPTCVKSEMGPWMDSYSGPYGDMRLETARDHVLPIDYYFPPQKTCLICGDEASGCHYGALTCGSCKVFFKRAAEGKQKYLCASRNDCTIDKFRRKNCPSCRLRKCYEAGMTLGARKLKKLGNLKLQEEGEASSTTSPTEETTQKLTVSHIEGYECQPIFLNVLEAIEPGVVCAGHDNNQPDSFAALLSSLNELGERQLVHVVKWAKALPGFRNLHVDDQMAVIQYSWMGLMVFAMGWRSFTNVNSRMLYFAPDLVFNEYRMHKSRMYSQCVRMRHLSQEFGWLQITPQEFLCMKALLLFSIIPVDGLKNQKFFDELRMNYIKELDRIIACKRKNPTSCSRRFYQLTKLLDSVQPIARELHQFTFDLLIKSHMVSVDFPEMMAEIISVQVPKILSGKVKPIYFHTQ

[2] = qHTS assay to identify small molecule agonists of the estrogen receptor beta (ER-beta) signaling pathway - cell viability counter screen (AID 1259380); details: ER-beta-bla HEK293T viability, CellTiter-Glo luminescence, 16 h; also: nearly all actives have a fitted effect of over 30% in size
Summary of the method: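 Compounds dissolved in DMSO were pin-transferred onto ER-beta-UAS-bla HEK293T cells that had settled 6 hr, and exposure ran 16 hr at 37C. Following the reporter read, CellTiter-Glo luminescence after 30 min at room temperature indicated cytotoxicity.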

[3] = qHTS assay to identify small molecule antagonists of the estrogen receptor beta (ER-beta) signaling pathway - cell viability counter screen (AID 1259382); details: ER-beta-UAS-bla HEK293T viability, CellTiter-Glo luminescence, 16 h;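 also: HEK293T cells carrying ER-beta-UAS-bla reporter stimulated with estradiol; nearly all actives have a fitted effect of over 55% in size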
Summary of the method: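 CellTiter-Glo ATP luminescence measured after the LiveBLAzer read in the same wells; ER-beta-UAS-bla HEK293T cells, 16 hr compound treatment with 1nM 17-beta-estradiol agonist at 37C, 5% CO2.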

[4] = biological target: Estrogen receptor (Homo sapiens) (UniProt P03372); assay: qHTS assay to identify small molecule agonists of the estrogen receptor alpha (ER-alpha) signaling pathway in the presence of an antagonist (AID 1259383; calls by dose curve; also: top concentration of the series differs between compounds; nearly all actives have a fitted effect of over 15% in size); details: VM7Luc4E2 cells, ERE-luciferase, +ICI-182,780, 22 h; at 92.4 µM (top of the series) unless noted
[5] = biological target: Thyrotropin receptor (Homo sapiens) (UniProt P16473); assay: qHTS assay to identify small molecule antagonists of the thyroid stimulating hormone receptor (TSHR) signaling pathway (AID 1259385; calls by dose curve; also: nearly all actives have a fitted effect of over 20% in size); details: TSHR-HEK293 cAMP HTRF, TSH-stimulated antagonist mode; at 92.4 µM (top of the series) unless noted
[6] = qHTS assay to identify small molecule agonists of the estrogen receptor alpha (ER-alpha) signaling pathway in the presence of an antagonist - cell viability counter screen (AID 1259386);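 also: cells exposed to compounds for 22 h at 37 °C before the viability read; nearly all actives have a fitted effect of over 30% in size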
Summary of the method: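 Using estrogen-depleted VM7Luc4E2 cells, the 15-concentration compound series was applied together with 10.0nM ICI-182,780 and incubated 22hr at 37C/5% CO2. Cell viability was then scored by CellTiter-Fluor.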

[7] = biological target: Progesterone receptor (Homo sapiens) (UniProt P06401); assay: qHTS assay to identify small molecule antagonists of the progesterone receptor (PR) signaling pathway (AID 1346795; active = well fitted inhibition curve with a large enough effect in the signal ratio in the repeat runs, not every such curve was filed as active; the % refers to the signal ratio)
Summary of the method: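 After 6 hr plating at 37C in 2% stripped-serum medium, PR-UAS-bla HEK293T cells got compounds, then 1 nM R5020. Sixteen hours later, LiveBLAzer substrate was applied for 2 hr at room temperature and fluorescence was recorded.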

[8] = qHTS assay to identify small molecule antagonists of the TGF-beta/Smad signaling pathway - cell viability counter screen (AID 1346824); details: SBE-bla HEK293T viability, CellTiter-Glo luminescence; also: nearly all actives have a fitted effect of over 50% in size
Summary of the method: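 SBE-bla HEK 293T cells, incubated overnight, then compound plus 0.25 ng/mL TGF-beta1 (stock added) for 5 hr at 37 C. Viability was read in the same wells by CellTiter-Glo luminescence after 30 min at room temperature.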

[9] = qHTS assay to identify small molecule antagonists of the progesterone receptor (PR) signaling pathway - cell viability counter screen (AID 1346798); also: nearly all actives have a fitted effect of over 50% in size; also: potency is read from the fitted curve at half-maximal effect
Summary of the method: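 Viability was determined by ATP-based luminescence (CellTiter-Glo) in PR-UAS-bla HEK293T cells cultured in 2% charcoal-stripped serum and incubated 16 hr with compounds under R5020 stimulation.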

[10] = biological target: Androgen receptor (Homo sapiens) (UniProt P10275); assay: qHTS assay to identify small molecule agonists of the androgen receptor (AR) signaling pathway in the presence of an antagonist (AID 1259381; calls by dose curve; also: nearly all actives have a fitted effect of over 15% in size); details: MDA-kb2 MMTV-luciferase, AR agonist + nilutamide, 16 h
[11] = at 92.4 µM (top of the series) unless noted
[12] = at 76.8 µM (top of the series) unless noted
% is scaled to controls: 0 for no effect and ±100 for the full control effect.

CCNC(C)Cc1ccc2c(c1)OCO2 (stereo not given)
inactive: Potency [1] | activity change, negative = cytotoxicity [2, 11] 3.51% | activity change, negative = cytotoxicity [3, 11] -2.11% | activation [4] -0.798% | activity change, negative = inhibition [5] -0.0875% | Potency [6] | Potency [7] | viability change, negative = cytotoxic [8, 12] 6.74%

CCOP(=S)(CC)Sc1ccccc1 (stereo not given)
inactive: Potency [1] | activity change, negative = cytotoxicity [2, 11] -0.342% | activity change, negative = cytotoxicity [3, 11] 1.51% | activation [4] -3.88% | Potency [6] | Potency [7] | Potency [9] | viability change, negative = cytotoxic [8, 12] 14.2%

CCCCO[P+](=O)OCCCC
inactive: Potency [1] | activity change, negative = cytotoxicity [2, 11] -2.06% and 1.79% | activation ([10]; at 92.4 µM (top of the series)) -0.657% and -0.162% | activity change, negative = cytotoxicity [3, 11] 5.05% and 3.65% | activation [4] -0.986% and -0.242% | activity change, negative = inhibition [5] -0.882% and 0.235% | Potency [6] | Potency [7] | Potency [9] | viability change, negative = cytotoxic [8, 12] -14.9% and -7.71%

CN(N=O)C(=N)N[N+](=O)[O-]
inactive: Potency [1] | activity change, negative = cytotoxicity [2, 11] -1.34% | activity change, negative = cytotoxicity [3, 11] -1.99% | Potency [6] | Potency [7] | Potency [9] | viability change, negative = cytotoxic [8, 12] 7.75%

N#CSc1ccc([N+](=O)[O-])cc1[N+](=O)[O-]
active: Potency [9] 6.11 µM

O=C(Cl)Oc1ccccc1
inactive: Potency [1] | activity change, negative = cytotoxicity [2, 11] -3% | activation ([10]; at 92.4 µM (top of the series)) 0.843% | activity change, negative = cytotoxicity [3, 11] 1.14% | activation [4] 0.181% | activity change, negative = inhibition [5] -0.463% | Potency [6] | Potency [7] | Potency [9] | viability change, negative = cytotoxic [8, 12] 0.214%

CCCCCCCCCCCCCC[P+](CCCCCC)(CCCCCC)CCCCCC
inactive: activation [4] -13.6% | activity change, negative = inhibition [5] -0.26%

CN(C(=O)Cc1ccccc1)[C@H]1CC[C@@]2(CCCO2)C[C@@H]1N1CCCC1
inactive: Potency [1] | activity change, negative = cytotoxicity [2, 11] 8.03% [at 42.5 µM] | activation ([10]; at 42.5 µM (top of the series)) 0.139% | activity change, negative = cytotoxicity [3, 11] 0.53% [at 42.5 µM] | activation [4] -0.0254% [at 42.5 µM] | activity change, negative = inhibition [5] 2.06% [at 42.5 µM] | Potency [7] | Potency [9] | viability change, negative = cytotoxic [8, 12] 9.29% [at 35.3 µM]

NC(=O)Nc1ccc([As](=O)(O)O)cc1
inactive: Potency [1] | activity change, negative = cytotoxicity ([2]; at 42.5 µM (top of the series)) 5.1% | activity change, negative = cytotoxicity ([2]; at 92.4 µM (top of the series)) 8.58% | activation ([10]; at 42.5 µM (top of the series)) -0.18% | activation ([10]; at 92.4 µM (top of the series)) -0.771% | activity change, negative = cytotoxicity ([3]; at 42.5 µM (top of the series)) 1.67% | activity change, negative = cytotoxicity ([3]; at 92.4 µM (top of the series)) -1.03% | Potency [6] | Potency [7] | Potency [9] | viability change, negative = cytotoxic ([8]; at 35.3 µM (top of the series)) -7.33% | viability change, negative = cytotoxic ([8]; at 76.8 µM (top of the series)) -21.7%

O=[p+]1oc2ccccc2c2ccccc21 (stereo not given)
inactive: Potency [1] | activity change, negative = cytotoxicity [2, 11] -5.73% | activity change, negative = cytotoxicity [3, 11] 4.73% | activation [4] 0.221% | activity change, negative = inhibition [5] 0.195% | Potency [6] | Potency [7] | Potency [9] | viability change, negative = cytotoxic [8, 12] 6.25%

CC(C)OP(=S)(OC(C)C)SCCNS(=O)(=O)c1ccccc1
inactive: Potency [1] | activity change, negative = inhibition [5] -0.541% | Potency [6] | viability change, negative = cytotoxic [8, 12] -0.552%

CCCCOP(OCCCC)OCCCC
inactive: Potency [1] | activity change, negative = cytotoxicity [2, 11] 0.45% | activation ([10]; at 92.4 µM (top of the series)) 14.9% | activity change, negative = cytotoxicity [3, 11] 2.19% | activation [4] 0.31% | activity change, negative = inhibition [5] 1.74% | Potency [6] | Potency [7] | Potency [9]

O=[N+]([O-])c1ccc([N+](=O)[O-])cc1
inactive: activity change, negative = cytotoxicity [3, 11] -20.3% | activation [4] 11% | activity change, negative = inhibition [5] 8.25% | Potency [9] | viability change, negative = cytotoxic [8, 12] 2.77%

COP(=S)(Cl)OC
inactive: Potency [1] | activity change, negative = cytotoxicity [2, 11] 6.42% | activity change, negative = cytotoxicity [3, 11] 3.86% | activation [4] -1.64% | activity change, negative = inhibition [5] 0.545% | Potency [7] | Potency [9] | viability change, negative = cytotoxic [8, 12] 2.56%

CN(C(=O)Cc1cccc2occc12)[C@H]1CC[C@@]2(CCCO2)C[C@@H]1N1CCCC1
inactive: Potency [1] | activity change, negative = cytotoxicity [2, 11] 1.34% | activity change, negative = cytotoxicity [3, 11] -6.2% | activation [4] -1.53% | activity change, negative = inhibition [5] 1.45% | Potency [7] | Potency [9] | viability change, negative = cytotoxic [8, 12] 0.423%
